US6916916

Amino acid sequences for entries named in this document (tags omitted). Residues count along the entry.
human serum transferrin, P02787, UniProt P02787, 20-698: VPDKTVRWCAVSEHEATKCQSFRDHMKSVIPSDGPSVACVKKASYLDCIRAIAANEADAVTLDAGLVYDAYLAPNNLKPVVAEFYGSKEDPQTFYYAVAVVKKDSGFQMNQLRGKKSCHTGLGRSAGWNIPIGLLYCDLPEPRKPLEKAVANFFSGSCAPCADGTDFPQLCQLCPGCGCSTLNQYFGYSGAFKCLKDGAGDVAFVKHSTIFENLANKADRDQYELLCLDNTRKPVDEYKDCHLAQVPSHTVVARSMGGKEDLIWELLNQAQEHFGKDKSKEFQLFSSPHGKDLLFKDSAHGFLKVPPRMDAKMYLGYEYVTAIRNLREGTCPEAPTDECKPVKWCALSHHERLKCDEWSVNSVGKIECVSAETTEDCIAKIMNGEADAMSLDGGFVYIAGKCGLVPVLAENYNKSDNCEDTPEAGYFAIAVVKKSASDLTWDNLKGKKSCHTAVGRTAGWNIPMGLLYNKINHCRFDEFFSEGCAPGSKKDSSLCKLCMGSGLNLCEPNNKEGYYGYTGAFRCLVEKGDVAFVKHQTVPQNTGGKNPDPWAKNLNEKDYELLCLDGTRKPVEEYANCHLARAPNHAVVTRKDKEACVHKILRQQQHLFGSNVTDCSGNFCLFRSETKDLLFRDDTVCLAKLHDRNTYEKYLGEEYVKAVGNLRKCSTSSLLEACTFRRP

Key:
[1] = target: T1, recombinant human deoxyribonuclease 1, P24855
T1 chain: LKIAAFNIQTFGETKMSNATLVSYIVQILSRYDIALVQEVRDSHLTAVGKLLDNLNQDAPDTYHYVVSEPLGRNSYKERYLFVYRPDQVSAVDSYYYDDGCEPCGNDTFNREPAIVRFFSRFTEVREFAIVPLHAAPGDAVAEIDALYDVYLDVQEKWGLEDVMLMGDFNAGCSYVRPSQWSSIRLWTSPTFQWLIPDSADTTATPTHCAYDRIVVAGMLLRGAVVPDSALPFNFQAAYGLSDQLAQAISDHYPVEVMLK

[2] = target: human serum transferrin, P02787

B1: CHO cell sialidase (purified from cell culture fluid of CHO 14.16 cells, 43 kDa) (protein)
chain: MATCPVLQKETLFQTGDYAYRIPALIYLSKQKTLLAFAEKRLTKTDEHADLFVLRRGSYNADTHQVQWQAEEVVTQAYLEGHRSMSPCPLYDKQTRTLFLFFIAVRGQISEHHQLQTGVNVTRLCHITSTDHGKTWSAVQDLTDTTIGSTHQDWATFGVGPGHCLQLRNTAGSLLVPAYAYRKQPPIHAPAPSAFCFLSHDHGSTWELGHFVSQNSLECQVAEVGTGAERVVYLNARSCLGARVQAQSPNSGLDFQDNQVVSKLVEPPKGCHGSVIAFPNPTSKADALDVWLLYTHPTDSRKRTNLGVYLNQKPLDPTTWSAPTLLATGICAYSDLQNMGHGPDGSPQFGCLYESNNYEEIVFLMFTLKQAFPAVFGAQ
Km [1]: 5.8 mM
Vmax [1]: 12 µmol/min/mg
Km [2]: 4.1 mM
